From ChEMBL document CHEMBL1142221, “Nootropic alpha7 nicotinic receptor allosteric modulator derived from GABAA receptor modulators” (Proc Natl Acad Sci U S A, 2007)

Chains of the proteins cited; added tags and fusions are not shown. Lines headed by an entry give the natural chain unless they say otherwise; changes in a name come on top.
UniProt P36544, whole entry: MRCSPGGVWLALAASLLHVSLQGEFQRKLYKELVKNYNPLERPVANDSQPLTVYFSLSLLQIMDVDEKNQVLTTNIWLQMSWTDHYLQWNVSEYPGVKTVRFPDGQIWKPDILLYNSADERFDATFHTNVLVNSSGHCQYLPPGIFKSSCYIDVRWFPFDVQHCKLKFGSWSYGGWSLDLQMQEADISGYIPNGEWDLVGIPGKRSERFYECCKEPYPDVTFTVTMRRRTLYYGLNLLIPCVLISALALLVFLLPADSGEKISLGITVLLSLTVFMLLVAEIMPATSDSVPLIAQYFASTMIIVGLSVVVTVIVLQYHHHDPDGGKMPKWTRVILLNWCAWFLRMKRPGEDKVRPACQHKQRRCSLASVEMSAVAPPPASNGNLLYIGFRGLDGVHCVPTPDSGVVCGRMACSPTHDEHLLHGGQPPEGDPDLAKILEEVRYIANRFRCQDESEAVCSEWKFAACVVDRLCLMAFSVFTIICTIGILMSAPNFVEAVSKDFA
UniProt P18507: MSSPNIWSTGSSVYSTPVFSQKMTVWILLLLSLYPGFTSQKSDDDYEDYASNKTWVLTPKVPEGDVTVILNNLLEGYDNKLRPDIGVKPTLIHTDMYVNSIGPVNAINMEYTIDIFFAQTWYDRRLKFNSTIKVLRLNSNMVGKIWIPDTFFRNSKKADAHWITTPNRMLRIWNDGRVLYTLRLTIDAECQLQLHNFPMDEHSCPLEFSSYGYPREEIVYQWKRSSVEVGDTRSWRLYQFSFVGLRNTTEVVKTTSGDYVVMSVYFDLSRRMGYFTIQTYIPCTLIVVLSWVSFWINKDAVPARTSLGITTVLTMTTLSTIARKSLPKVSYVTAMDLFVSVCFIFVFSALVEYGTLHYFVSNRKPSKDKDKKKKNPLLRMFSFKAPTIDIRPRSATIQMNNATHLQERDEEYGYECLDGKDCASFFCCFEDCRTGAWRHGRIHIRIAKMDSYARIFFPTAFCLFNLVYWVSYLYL
UniProt P28472: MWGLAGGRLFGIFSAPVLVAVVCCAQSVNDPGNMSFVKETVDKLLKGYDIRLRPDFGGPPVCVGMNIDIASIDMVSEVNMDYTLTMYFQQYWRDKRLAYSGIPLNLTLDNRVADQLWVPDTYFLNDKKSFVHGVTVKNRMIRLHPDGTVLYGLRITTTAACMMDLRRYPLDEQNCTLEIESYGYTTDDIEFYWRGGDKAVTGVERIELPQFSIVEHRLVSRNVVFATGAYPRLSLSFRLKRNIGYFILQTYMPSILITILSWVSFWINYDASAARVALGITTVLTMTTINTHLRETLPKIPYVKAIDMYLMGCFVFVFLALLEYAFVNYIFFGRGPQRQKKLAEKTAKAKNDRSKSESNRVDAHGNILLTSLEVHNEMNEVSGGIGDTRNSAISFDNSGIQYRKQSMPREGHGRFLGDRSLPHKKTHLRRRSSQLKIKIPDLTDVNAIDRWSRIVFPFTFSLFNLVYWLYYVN
UniProt P47869: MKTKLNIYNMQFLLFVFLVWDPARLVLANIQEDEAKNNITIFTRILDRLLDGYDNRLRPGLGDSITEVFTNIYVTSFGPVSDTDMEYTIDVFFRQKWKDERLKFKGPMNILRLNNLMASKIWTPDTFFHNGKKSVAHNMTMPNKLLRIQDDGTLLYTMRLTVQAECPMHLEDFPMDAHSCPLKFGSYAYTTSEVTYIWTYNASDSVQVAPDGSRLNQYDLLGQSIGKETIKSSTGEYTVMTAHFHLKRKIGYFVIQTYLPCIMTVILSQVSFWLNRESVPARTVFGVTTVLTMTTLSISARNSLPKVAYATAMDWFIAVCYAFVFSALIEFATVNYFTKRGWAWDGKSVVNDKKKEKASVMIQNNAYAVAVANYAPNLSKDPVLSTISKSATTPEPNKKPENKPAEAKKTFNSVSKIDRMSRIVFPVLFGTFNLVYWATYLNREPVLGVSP

Columns and labels:
Conditions in all cases: Oocyte
[1] = target: Neuronal acetylcholine receptor subunit alpha-7 (Homo sapiens, UniProt P36544); test: Activation of human alpha-7 nAChR expressed in Xenopus oocytes assessed as modulation of nicotine-induced current by measuring ratio of I/Imax current by two-electrode voltage-clamp method; assay type: cell-based
Outline: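 Oocytes injected with 0.005–50 ng mRNA per subunit (α4β2 and α3β4 at 1:1; α1β1γδ at 1:1:1:1; α7 and 5-HT3A single). Two-electrode voltage clamp at −70 mV, 3–14 days post-injection. Ca²⁺-free Ringer's with BaCl₂ replacing Ca²⁺ (pH 7.4) to limit Ca²⁺-activated Cl⁻ currents. Rapid linear-array application. Current expressed as I/I_max; concentration–effect data fit to a four-parameter logistic. For α7, agonist was fixed at EC₅.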

[2] = system: Neuronal acetylcholine receptor alpha3/beta4 (Rattus norvegicus); test: Activation of rat nAChR alpha-3-beta-4 expressed in Xenopus oocytes assessed as modulation of nicotine-induced current by measuring ratio of I/Imax current by two-electrode voltage-clamp method
[3] = target: GABA-A receptor; alpha-2/beta-3/gamma-2 (Homo sapiens) (UniProt P18507+P28472+P47869); test: Activation of human GABAA alpha-2-beta-3-gamma-2L receptor expressed in Xenopus oocytes assessed as modulation of GABA-induced current by measuring ratio of I/Imax current by two-electrode voltage-clamp method

## Cc1cc(/C(=C/Nc2ccc(Cl)cc2)C(=O)Nc2ccc(Cl)cc2)on1 [AVL-3288]
[1]
  Ratio: 0.6
[2]
  Activity: inactive
[3]
  Ratio: 0.14

The source made the active and inactive calls. The rule behind the calls is not given here.
